Measured values from PubChem BioAssay (NCI).
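Results reflect a 48-hour exposure of cells in 96-well plates to compound at five concentrations. The concentration for 50% growth inhibition is given as GI50. TGI: concentration producing complete growth inhibition.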

Tests used:
Assay in all cases: inhibition of tumour cell growth, NCI panel, 48 h
786-0 renal = test system: 786-0 renal
A498 renal = test system: A498 renal
A549 NSCLC = test system: A549 NSCLC
ACHN renal = test system: ACHN renal
BT-549 breast = test system: BT-549 breast
CAKI-1 renal = test system: CAKI-1 renal
CCRF-CEM leukemia = test system: CCRF-CEM leukemia
COLO 205 colon = test system: COLO 205 colon
DU-145 prostate = test system: DU-145 prostate
EKVX NSCLC = test system: EKVX NSCLC
HCC-2998 colon = test system: HCC-2998 colon
HCT-116 colon = test system: HCT-116 colon
HCT-15 colon = test system: HCT-15 colon
HL-60(TB) leukemia = test system: HL-60(TB) leukemia
HOP-62 NSCLC = test system: HOP-62 NSCLC
HOP-92 NSCLC = test system: HOP-92 NSCLC
HS 578T breast = test system: HS 578T breast
HT29 colon = test system: HT29 colon
IGROV1 ovarian = test system: IGROV1 ovarian
K-562 leukemia = test system: K-562 leukemia
KM12 colon = test system: KM12 colon
M14 melanoma = test system: M14 melanoma
MALME-3M melanoma = test system: MALME-3M melanoma
MCF7 breast = test system: MCF7 breast
MDA-MB-435 = test system: MDA-MB-435
MOLT-4 leukemia = test system: MOLT-4 leukemia
NCI-H226 lung = test system: NCI-H226 lung
NCI-H23 lung = test system: NCI-H23 lung
NCI-H322M lung = test system: NCI-H322M lung
NCI-H460 lung = test system: NCI-H460 lung
NCI-H522 lung = test system: NCI-H522 lung
NCI/ADR-RES ovarian = test system: NCI/ADR-RES ovarian
OVCAR-3 ovarian = test system: OVCAR-3 ovarian
OVCAR-4 ovarian = test system: OVCAR-4 ovarian
OVCAR-5 ovarian = test system: OVCAR-5 ovarian
OVCAR-8 ovarian = test system: OVCAR-8 ovarian
PC-3 prostate = test system: PC-3 prostate
RPMI-8226 leukemia = test system: RPMI-8226 leukemia
RXF 393 renal = test system: RXF 393 renal
SF-268 CNS = test system: SF-268 CNS
SF-295 CNS = test system: SF-295 CNS
SF-539 CNS = test system: SF-539 CNS
SK-MEL-28 melanoma = test system: SK-MEL-28 melanoma
SK-MEL-5 melanoma = test system: SK-MEL-5 melanoma
SK-OV-3 ovarian = test system: SK-OV-3 ovarian
SNB-19 CNS = test system: SNB-19 CNS
SNB-75 CNS = test system: SNB-75 CNS
SW-620 colon = test system: SW-620 colon
T-47D breast = test system: T-47D breast
TK-10 renal = test system: TK-10 renal
U251 CNS = test system: U251 CNS
UACC-257 melanoma = test system: UACC-257 melanoma
UACC-62 melanoma = test system: UACC-62 melanoma
UO-31 renal = test system: UO-31 renal

`CC[As](CC)SCC(O)CO` (configuration not stated) showed a GI50 (786-0 renal) of 401 nM, a TGI (786-0 renal) of 1820 nM and a GI50 (A498 renal) of 1760 nM. The TGI (A498 renal) was 5780 nM, the GI50 (A549 NSCLC) was 1260 nM and the TGI (A549 NSCLC) was 2870 nM. For the same molecule, the GI50 (ACHN renal) was 356 nM, the TGI (ACHN renal) was 1430 nM and the GI50 (BT-549 breast) was 559 nM. It also gave a TGI (BT-549 breast) of 2160 nM, a GI50 (CAKI-1 renal) of 633 nM and a TGI (CAKI-1 renal) of 2310 nM. For the same molecule, the GI50 (CCRF-CEM leukemia) was 309 nM, the TGI (CCRF-CEM leukemia) was over 100000 nM and the GI50 (COLO 205 colon) was 287 nM. It also gave a TGI (COLO 205 colon) of 13100 nM, a GI50 (DU-145 prostate) of 195 nM and a TGI (DU-145 prostate) of 1810 nM. The GI50 (EKVX NSCLC) was 970 nM, the TGI (EKVX NSCLC) was 5920 nM and the GI50 (HCC-2998 colon) was 985 nM. The TGI (HCC-2998 colon) was 2200 nM, the GI50 (HCT-116 colon) was 316 nM and the TGI (HCT-116 colon) was 11200 nM. The GI50 (HCT-15 colon) was 45.9 nM, the TGI (HCT-15 colon) was 906 nM and the GI50 (HL-60(TB) leukemia) was 103 nM. The TGI (HL-60(TB) leukemia) was 3230 nM, the GI50 (HOP-62 NSCLC) was 2150 nM and the TGI (HOP-62 NSCLC) was 6570 nM. It also gave a GI50 (HOP-92 NSCLC) of 606 nM, a TGI (HOP-92 NSCLC) of 4020 nM and a GI50 (HS 578T breast) of 330 nM. The TGI (HS 578T breast) was 2210 nM, the GI50 (HT29 colon) was 344 nM and the TGI (HT29 colon) was 18700 nM. The GI50 (IGROV1 ovarian) was 578 nM, the TGI (IGROV1 ovarian) was 21400 nM and the GI50 (K-562 leukemia) was 63.5 nM. For the same molecule, the TGI (K-562 leukemia) was 3460 nM, the GI50 (KM12 colon) was 1330 nM and the TGI (KM12 colon) was 7460 nM. For the same molecule, the GI50 (M14 melanoma) was 337 nM, the TGI (M14 melanoma) was 8990 nM and the GI50 (MALME-3M melanoma) was 915 nM. The TGI (MALME-3M melanoma) was 2850 nM, the GI50 (MCF7 breast) was 334 nM and the TGI (MCF7 breast) was 9510 nM. It also gave a GI50 (MDA-MB-435) of 250 nM, a TGI (MDA-MB-435) of 1640 nM and a GI50 (MOLT-4 leukemia) of 185 nM. For the same molecule, the TGI (MOLT-4 leukemia) was 6610 nM, the TGI (NCI-H226 lung) was 1920 nM and the GI50 (NCI-H23 lung) was 112 nM. For the same molecule, the TGI (NCI-H23 lung) was 5760 nM, the GI50 (NCI-H322M lung) was 3480 nM and the TGI (NCI-H322M lung) was 11200 nM. It also gave a GI50 (NCI-H460 lung) of 3160 nM, a TGI (NCI-H460 lung) of 25200 nM and a GI50 (NCI-H522 lung) of 152 nM. The TGI (NCI-H522 lung) was 1310 nM, the GI50 (NCI/ADR-RES ovarian) was 489 nM and the TGI (NCI/ADR-RES ovarian) was 7720 nM. For the same molecule, the GI50 (OVCAR-3 ovarian) was 118 nM, the TGI (OVCAR-3 ovarian) was 11100 nM and the GI50 (OVCAR-4 ovarian) was 900 nM. It also gave a TGI (OVCAR-4 ovarian) of 47600 nM, a GI50 (OVCAR-5 ovarian) of 1690 nM and a TGI (OVCAR-5 ovarian) of 4000 nM. For the same molecule, the GI50 (OVCAR-8 ovarian) was 416 nM, the TGI (OVCAR-8 ovarian) was 2410 nM and the GI50 (PC-3 prostate) was 377 nM. The TGI (PC-3 prostate) was 9960 nM, the GI50 (RPMI-8226 leukemia) was 93.2 nM and the TGI (RPMI-8226 leukemia) was 394 nM. The GI50 (RXF 393 renal) was 212 nM, the TGI (RXF 393 renal) was 1330 nM and the GI50 (SF-268 CNS) was 549 nM. It also gave a TGI (SF-268 CNS) of 3580 nM, a GI50 (SF-295 CNS) of 4980 nM and a TGI (SF-295 CNS) of 24200 nM. It also gave a GI50 (SF-539 CNS) of 262 nM, a TGI (SF-539 CNS) of 2420 nM and a GI50 (SK-MEL-28 melanoma) of 450 nM. The TGI (SK-MEL-28 melanoma) was 7900 nM, the GI50 (SK-MEL-5 melanoma) was 221 nM and the TGI (SK-MEL-5 melanoma) was 602 nM. For the same molecule, the GI50 (SK-OV-3 ovarian) was 1120 nM, the TGI (SK-OV-3 ovarian) was 14800 nM and the GI50 (SNB-19 CNS) was 2580 nM. The TGI (SNB-19 CNS) was 34600 nM, the GI50 (SNB-75 CNS) was 2920 nM and the TGI (SNB-75 CNS) was over 100000 nM. It also gave a GI50 (SW-620 colon) of 56.6 nM, a TGI (SW-620 colon) of 264 nM and a GI50 (T-47D breast) of 5650 nM. For the same molecule, the TGI (T-47D breast) was 43600 nM, the GI50 (TK-10 renal) was 240 nM and the TGI (TK-10 renal) was 1120 nM. It also gave a GI50 (U251 CNS) of 518 nM, a TGI (U251 CNS) of 2030 nM and a GI50 (UACC-257 melanoma) of 621 nM. For the same molecule, the TGI (UACC-257 melanoma) was 2430 nM, the GI50 (UACC-62 melanoma) was 213 nM and the TGI (UACC-62 melanoma) was 6200 nM. The GI50 (UO-31 renal) was 516 nM and the TGI (UO-31 renal) was 3410 nM.
